B1: Rb9 (peptide)
peptide: CARGETARATFAYWGQGC
modifications: C-terminal amide (NH2); Cys-Cys disulfide bond (C-C), cyclic
notes: Synthetic cyclic peptide derived from the VH CDR3 (H3) of humanized RebMab200; dotted on nitrocellulose in the dot-blot assays; also called Rb9 peptide
B2: Rb10A1 (peptide)
peptide: AARGETARATFAYWGQG
modifications: C-terminal amide (NH2)
notes: Linear peptide; N-terminal Cys of Rb10 replaced by alanine; also called A1C

This assay has as its target T1, recombinant mouse MIF (mouse, UniProt P34884 2-115).
T1 construct: Bought: R&D Systems in the first dot-blot (25 nM), Abcam in the second dot-blot (50 nM); also called rMIF; recombinant MIF
Description: chemiluminescent dot-blotting, peptide on nitrocellulose, recombinant MIF in solution. The procedure:
Using the same assay we compared the interaction of the peptides Rb9, Rb10A1, Rb9-MID and vehicle (1% DMSO in dH2O) and recombinant mouse MIF with some modifications. 100 μg of the peptides were dotted on nitrocellulose membranes, blocked and incubated with 50 nM of rMIF (Abcam, Cambridge, UK) overnight at 4° C. Membranes were washed and incubated with primary mouse anti-MIF (R&D, Minneapolis, USA) overnight at 4° C., washed and incubated with the secondary anti-goat IgG-HRP (Sigma-Aldrich, Missouri, USA). The reaction was detected as described above. Graphs represent RLU in dot area quantified using ImageJ software.
As for RATFAYWG (C-terminal amide (NH2), also called Rb-MID) [Rb9-MID], the binding result was “no binding”. Next, B1: “binds”. Next, B2: “no binding”.

These data come from patent US20210147534A1 (RECEPTA BIOPHARMA S A, published 2021).
